According to US20160199445A1, “USE OF ARPIN A NEW INHIBITOR OF THE ARP2/3 COMPLEX FOR THE DIAGNOSIS AND TREATMENT OF DISEASES” (CENTRE NATIONAL DE LA RECHERCHE SCIENTIFIQUE, priority 2013, published 2016):

What was measured:
[1] = target: Human full length Arpin (residues 1-226), purified from E. coli, cleaved off GST by TEV protease (human) (UniProt Q7Z6K5); experiment: SEC-MALS of the mixture of Arpin and Rac1 loaded with GTPγS; alone: Arpin 26290 ± 140, Rac1-GTPγS 28390 ± 150 [table]
[2] = target: Human full length Arpin (residues 1-226), purified from E. coli, cleaved off GST by TEV protease (human) (UniProt Q7Z6K5); experiment: SEC-MALS of the mixture of Arpin and Rac1 loaded with GDP; alone: Arpin 26290 ± 140, Rac1-GDP 28180 ± 170 [table]

Measured mass (g/mol) of the mixture [1]: 26800 g/mol | Measured mass (g/mol) of the mixture [2]: 27000 g/mol
Substance: Untagged Rac1 purified from E. coli, loaded with GDP or GTPγS (from UniProt P63000 1-192)
